In this assay the target is TRAIL-R2-moFc, O14763. The assay can be described thus: ELISA; TRAIL-R2-moFc (DR5-moFc) coated at 3 µg/ml (0.3 µg/well) overnight at 4 °C; fusion proteins titrated 1:4 from 100 nM in MPBS, 1 h, RT; detected with HRP-conjugated anti-human Fc antibody; n = 3.

B1: Fc-scTRAIL (0 + 2), P50591 118-281; P50591 118-281; P50591 118-281 (Fc fusion)
chain: GPQRVAAHITGTRGRSNTLSSPNSKNEKALGRKINSWESSRSGHSFLSNLHLRNGELVIHEKGFYYIYSQTYFRFQEEIKENTKNDKQMVQYIYKYTSYPDPILLMKSARNSCWSKDAEYGLYSIYQGGIFELKENDRIFVSVTNEHLIDMDHEASFFGAFLVGGPQRVAAHITGTRGRSNTLSSPNSKNEKALGRKINSWESSRSGHSFLSNLHLRNGELVIHEKGFYYIYSQTYFRFQEEIKENTKNDKQMVQYIYKYTSYPDPILLMKSARNSCWSKDAEYGLYSIYQGGIFELKENDRIFVSVTNEHLIDMDHEASFFGAFLVGGPQRVAAHITGTRGRSNTLSSPNSKNEKALGRKINSWESSRSGHSFLSNLHLRNGELVIHEKGFYYIYSQTYFRFQEEIKENTKNDKQMVQYIYKYTSYPDPILLMKSARNSCWSKDAEYGLYSIYQGGIFELKENDRIFVSVTNEHLIDMDHEASFFGAFLVG
modifications: not checked
The molecule B1 showed a 50% effective concentration (EC50) of 0.493 nM.

B2: scTRAIL-Fc (0 + 2), P50591 118-281; P50591 118-281; P50591 118-281 (Fc fusion)
chain: GPQRVAAHITGTRGRSNTLSSPNSKNEKALGRKINSWESSRSGHSFLSNLHLRNGELVIHEKGFYYIYSQTYFRFQEEIKENTKNDKQMVQYIYKYTSYPDPILLMKSARNSCWSKDAEYGLYSIYQGGIFELKENDRIFVSVTNEHLIDMDHEASFFGAFLVGGPQRVAAHITGTRGRSNTLSSPNSKNEKALGRKINSWESSRSGHSFLSNLHLRNGELVIHEKGFYYIYSQTYFRFQEEIKENTKNDKQMVQYIYKYTSYPDPILLMKSARNSCWSKDAEYGLYSIYQGGIFELKENDRIFVSVTNEHLIDMDHEASFFGAFLVGGPQRVAAHITGTRGRSNTLSSPNSKNEKALGRKINSWESSRSGHSFLSNLHLRNGELVIHEKGFYYIYSQTYFRFQEEIKENTKNDKQMVQYIYKYTSYPDPILLMKSARNSCWSKDAEYGLYSIYQGGIFELKENDRIFVSVTNEHLIDMDHEASFFGAFLVG
modifications: not checked
Turning to B2, the concentration giving a half-maximal response (EC50) amounted to 0.383 nM.

As usually defined, the EC50 is the concentration at which the effect is half-maximal.
